Experiment [1] is described as follows: Binding affinity to human FRbeta expressed in Chinese hamster D4 cells assessed as cell growth inhibition after 96 hrs by CellTiter-Blue assay.
The nature of experiment [2]: Binding affinity to human FRalpha expressed in Chinese hamster RT16 cells assessed as cell growth inhibition after 96 hrs by CellTiter-Blue assay.
Experiment [3] can be described thus: Binding affinity to human FRbeta expressed in Chinese hamster D4 cells assessed as cell growth inhibition after 96 hrs by CellTiter-Blue assay in presence of 200 nM folic acid. For orientation: The colour change of resazurin is a common sign of viable cells or microbes.

Where only a bound is given, the exact number is not on record here.

Take `Nc1nc(N)c2c(CCCc3csc(C(=O)N[C@@H](CCC(=O)O)C(=O)O)c3)coc2n1`: the IC50 (usually the concentration at which inhibition is half-maximal) in experiment [1] was 18 nM; in experiment [2], 154 nM; in experiment [3], over 1000 nM.
On to `Nc1nc(N)c2c(CCCc3cc(C(=O)N[C@@H](CCC(=O)O)C(=O)O)cs3)coc2n1`, for which the IC50 in experiment [2] came to 148 nM.

The record behind these values is BindingDB's records for doi:10.1021/acs.jmedchem.5b00801 (Duquesne University, 2015).
